In patent US7838249 (BOARD OF REGENTS OF THE UNIVERSITY OF OKLAHOMA, dated 2010):

Biological target: T1, Rab5:wild type (WT), overexpressed in Tet-Off PC12 cells (Homo sapiens (Human), UniProt P20339 1-215, C-terminal cysteines are isoprenylated in cells; only the GTP-bound fraction binds GST-R5BD)
T1 construct: also called Rab5:WT; WT Rab5
T1 sequence: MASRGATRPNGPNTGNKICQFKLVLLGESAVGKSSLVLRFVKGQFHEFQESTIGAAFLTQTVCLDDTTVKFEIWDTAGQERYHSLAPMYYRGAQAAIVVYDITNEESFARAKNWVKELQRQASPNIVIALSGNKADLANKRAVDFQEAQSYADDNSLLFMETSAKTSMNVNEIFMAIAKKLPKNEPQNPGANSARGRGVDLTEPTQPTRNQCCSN
Assay: GST-R5BD pull-down from PC12 cell lysate, anti-Rab5 immunoblot, densitometry

B1: GST-R5BD (fusion protein of glutathione S-transferase and the Rab5-binding domain, residues 739-862, of Rabaptin5) (other)
chain: MSPILGYWKIKGLVQPTRLLLEYLEEKYEEHLYERDEGDKWRNKKFELGLEFPNLPYYIDGDVKLTQSMAIIRYIADKHNMLGGCPKERAEISMLEGAVLDIRYGVSRIAYSKDFETLKVDFLSKLPEMLKMFEDRLCHKTYLNGDHVTHPDFMLYDALDVVLYMDPMCLDAFPKLVCFKKRIEAIPQIDKYLKSSKYIAWPLQGWQATFGGGDHPPKSDLIEGRGIPGNSASISSLKAELERIKVEKGQLESTLREKSQQLESLQEIKISLEEQLKKETAAKATVEQLMFEEKNKAQRLQTELDVSEQVQRDFVKLSQTLQVQLERIRQADSLERIRAILNDTKLTDINQLPET
notes: also called pGEX/Rabaptin-5(R5BD) product; Rabaptin-5 R5BD
  pull-down signal, fold lower than that of Rab5:Q79L: 7 fold
